Yeast mating assay B: variants of the scFv Ab-14

Target: peptide PDVDLGDISGINAS, taken from heptad repeat 2 (HR2) of SARS-CoV-2 spike.

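The parent was found by panning a naive human phage display library on the peptide. The variants were designed computationally from a first round of random CDR variants and then made and measured. Group labels follow the data file (En: ensemble of fine-tuned language models; GP: Gaussian process model; HC: hill climbing; Gen: genetic algorithm; Gibbs: Gibbs sampling; a sequence that several methods proposed may carry one label only). In AlphaSeq, yeast of one mating type display the scFv and yeast of the other type display the target. The frequency of each diploid, read from paired DNA barcodes, reflects how well the two displayed proteins bind. Scores were corrected for input abundance and mapped to Kd with protein pairs of known affinity run in the same pool. There are six technical replicates.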

The variants keep the heavy chain, the linker and the frameworks of Ab-14 (scFv order VH, the linker GGGGSGGGGSGGGGS, VL).
VH: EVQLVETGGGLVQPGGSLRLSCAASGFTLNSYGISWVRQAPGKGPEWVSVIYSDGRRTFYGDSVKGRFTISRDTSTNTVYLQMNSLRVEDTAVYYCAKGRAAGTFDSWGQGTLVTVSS
VL: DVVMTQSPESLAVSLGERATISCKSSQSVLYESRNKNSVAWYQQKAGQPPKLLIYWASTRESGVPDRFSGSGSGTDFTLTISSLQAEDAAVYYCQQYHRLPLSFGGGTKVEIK

Each variant's VL is given in full. Variants here have more than six changes. Kd is apparent (estimated from mating counts) and averaged on the log scale over replicates with a signal. Smaller is tighter. Entries are sorted by rising average. The authors averaged sequences with at least three values out of six and counted those with two or fewer as poor binders. The range of this assay differs from that of the first round, and the authors advise against merging the two. Three control strains display no target. For all light chain designs, 4% of the pairings with them gave a signal, with a median of 430 nM and one signal in twenty below 38 nM, so weak values seen in few replicates may be background. The parent sequence was in this pool as ten entries: three were never detected, three once, and four in most replicates, with averages from 2.2 nM to 240 nM.

* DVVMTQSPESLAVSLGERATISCKLEQSAWLESRNKNAVAWYQQKAGQPPKLLIYSASQRELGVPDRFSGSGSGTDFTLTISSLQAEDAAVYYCQQYHRLPLSFGGGTKVEIK [GP_Gibbs]: 360 pM (6 of 6 replicates)
* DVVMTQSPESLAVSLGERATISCKMEGGVLYESRNKGSVAWYQQKAGQPPKLLIYGASVRESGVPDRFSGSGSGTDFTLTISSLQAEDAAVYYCQQYHRLPLSFGGGTKVEIK [GP_HC]: 530 pM (6 of 6 replicates)
* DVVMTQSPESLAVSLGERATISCKVNGLMGIEQMNSKSVAWYQQKAGQPPKLLIYHSSTRENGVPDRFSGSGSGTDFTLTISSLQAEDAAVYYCQQYHRLPLSFGGGTKVEIK [En_HC]: 1.7 nM (6 of 6 replicates)
* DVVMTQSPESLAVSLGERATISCHLSLPWQLGHPSTNAVAWYQQKAGQPPKLLIYNMSTLMTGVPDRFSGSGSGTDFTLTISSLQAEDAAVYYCQQYSRLPLSFGGGTKVEIK [En_Gibbs]: 2.4 nM (6 of 6 replicates)
* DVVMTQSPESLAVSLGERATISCKINLAVWNSGHNMNNIAWYQQKAGQPPKLLIYGESELSRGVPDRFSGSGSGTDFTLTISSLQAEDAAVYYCQQYVRLPLQFGGGTKVEIK [En_Gibbs]: 2.4 nM (6 of 6 replicates)
* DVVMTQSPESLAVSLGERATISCHLYQSQLYESRNKNSVAWYQQKAGQPPKLLIYNASTRLHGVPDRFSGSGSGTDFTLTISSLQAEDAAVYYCQQYHRLPLSFGGGTKVEIK [GP_Gibbs]: 3.1 nM (6 of 6 replicates)
* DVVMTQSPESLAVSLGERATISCSISASMAFLSRNKNSVAWYQQKAGQPPKLLIYENSTREYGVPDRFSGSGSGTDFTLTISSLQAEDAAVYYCQQYDRLPLLFGGGTKVEIK [En_HC]: 4.4 nM (6 of 6 replicates)
* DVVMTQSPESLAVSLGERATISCKLSPSEMYESRMKNSVAWYQQKAGQPPKLLIYMASTRYTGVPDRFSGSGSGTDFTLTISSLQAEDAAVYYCQQYHRLPLSFGGGTKVEIK [GP_Gibbs]: 8.4 nM (6 of 6 replicates)
* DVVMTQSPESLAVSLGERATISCMISGSVMSESRLKNSVAWYQQKAGQPPKLLIYQTTTREPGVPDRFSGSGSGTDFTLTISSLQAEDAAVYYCQQYDRLPLSFGGGTKVEIK [En_HC]: 9.7 nM (6 of 6 replicates)
* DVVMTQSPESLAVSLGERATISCRIMYEYDSSVDKYNAVAWYQQKAGQPPKLLIYQAHIRTQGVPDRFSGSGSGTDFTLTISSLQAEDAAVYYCQHYNRLPLSFGGGTKVEIK [En_Gibbs]: 14 nM (6 of 6 replicates)
* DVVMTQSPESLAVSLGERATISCTISQSVNMTSHGKNSVAWYQQKAGQPPKLLIYQAEMRESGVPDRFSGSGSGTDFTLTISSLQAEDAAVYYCQQYDRLPLSFGGGTKVEIK [En_HC]: 17 nM (6 of 6 replicates)
* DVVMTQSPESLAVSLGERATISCTIDDEMPSHGFKWNSIAWYQQKAGQPPKLLIYGVATVLQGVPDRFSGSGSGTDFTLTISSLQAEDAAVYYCQQYDRLPLSFGGGTKVEIK [En_Gibbs]: 21 nM (6 of 6 replicates)
* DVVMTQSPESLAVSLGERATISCMVSQLMLVGMHAKNSIAWYQQKAGQPPKLLIYEASSRLNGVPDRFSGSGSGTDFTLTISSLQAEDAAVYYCQQYDRLPLIFGGGTKVEIK [En_Gen]: 23 nM (6 of 6 replicates)
* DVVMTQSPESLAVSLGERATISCKITLIFSNKGNQRHSVAWYQQKAGQPPKLLIYNAETLAHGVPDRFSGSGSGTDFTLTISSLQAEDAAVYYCQQYYRLPFMFGGGTKVEIK [En_Gibbs]: 57 nM (6 of 6 replicates)
* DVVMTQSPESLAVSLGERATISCTLMMDPTEQRDNKHAVAWYQQKAGQPPKLLIYDNNQRDRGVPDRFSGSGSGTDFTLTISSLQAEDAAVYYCQQYHRLPLSFGGGTKVEIK [En_Gibbs]: 68 nM (4 of 6 replicates)
* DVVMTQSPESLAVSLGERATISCSMMFDTSDNYHERNNIAWYQQKAGQPPKLLIYEQAAIMAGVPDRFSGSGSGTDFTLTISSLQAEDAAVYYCQQYSILPLSFGGGTKVEIK [En_Gibbs]: 76 nM (1 of 6 replicates)
* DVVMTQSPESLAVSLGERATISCSLTAHVEEKKGAEASVAWYQQKAGQPPKLLIYEAVMLESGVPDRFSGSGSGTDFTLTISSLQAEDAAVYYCQQYHQLPLMFGGGTKVEIK [En_Gibbs]: 82 nM (6 of 6 replicates)
* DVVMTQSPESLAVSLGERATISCIVSQLMLWGYHAKNSIAWYQQKAGQPPKLLIYEASTRFNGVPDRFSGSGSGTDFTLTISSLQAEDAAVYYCQQYDRLPLFFGGGTKVEIK [En_Gen]: 110 nM (1 of 6 replicates)
* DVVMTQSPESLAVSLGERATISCKLYQSMNFLTRVMNSIAWYQQKAGQPPKLLIYDASTIPDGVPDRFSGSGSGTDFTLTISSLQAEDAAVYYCQQYHRLPLSFGGGTKVEIK [En_HC]: 120 nM (6 of 6 replicates)

The measurements come from Li et al. 2023 (doi:10.1038/s41467-023-39022-2) through the FLAb antibody collection.